Data taken from US12415834B2, “GhR-binding peptide and composition comprising same” (priority 2021, dated 2025).

Sequences of proteins named here, by UniProt entry; tags and fusion partners are left off. A line that says so, or that is headed by a name, gives the form on record, which may keep a tag or linker.
UniProt P10912, with tags, fused parts or gaps limits assumed: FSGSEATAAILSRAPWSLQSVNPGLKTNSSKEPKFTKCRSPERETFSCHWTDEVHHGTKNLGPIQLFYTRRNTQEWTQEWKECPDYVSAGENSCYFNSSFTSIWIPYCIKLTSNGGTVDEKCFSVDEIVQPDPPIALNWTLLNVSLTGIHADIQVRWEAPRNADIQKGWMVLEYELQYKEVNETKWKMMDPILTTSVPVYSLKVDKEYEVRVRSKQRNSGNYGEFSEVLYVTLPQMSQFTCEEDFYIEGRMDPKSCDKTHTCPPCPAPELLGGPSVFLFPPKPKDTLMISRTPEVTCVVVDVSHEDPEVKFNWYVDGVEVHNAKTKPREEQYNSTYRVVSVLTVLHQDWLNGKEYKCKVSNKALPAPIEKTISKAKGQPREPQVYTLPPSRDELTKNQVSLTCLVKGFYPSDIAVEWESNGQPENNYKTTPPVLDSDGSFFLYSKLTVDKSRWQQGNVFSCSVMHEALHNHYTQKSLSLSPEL

Target: T1, Recombinant human GhR-Fc protein (Homo sapiens, UniProt P10912)
T1 construct: purchased R&D Systems
Test: SPR binding assay (Biacore T200, single-cycle kinetics) of peptides against immobilized human GhR-Fc
Conditions: hGhR, Table 1 bicyclic peptides, KD calculated from ka and kd
Procedure: SPR assay was performed using Biacore T200 (cytiva: Former GE Healthcare). After the equilibration of Series S Sensor Chip CM5 (produced by cytiva: Former GE Healthcare) with Running Buffer (HBS-EP with 1% (v/v) DMSO), an EDC/NHS mixture was injected at a flow rate of 10 μL/min for 7 minutes to thereby activate the functional groups on sensor chip. Recombinant human GhR-Fc protein (R&D Systems) in 10 mM Acetate (pH 4.0) was injected immobilized to at a flow rate of 5 μL/min. It took 7 minutes to immobilize the GhR on the substrate surfaces of the sensor chip. Then Ethanolamine was injected at a flow rate of 10 μL/min for 7 minutes. 1M Ethanolamine (aq.) was injected at a flow rate of 10 μL/min for 420 seconds for capping.
Using these Peptide Samples, kinetics of peptides against human GhR-Fc protein were measured. The method adopted for sample measurement was a single-cycle kinetics method. The analysis was conducted using the evaluation software provided with Biacore T200. A DMSO correction curve obtained by solvent correction measurements was applied for the analysis. Kinetics fitting was done on the difference data obtained by subtracting the baseline data from sample measurement data. KD values were calculated based on the association rate constant (ka) and dissociation rate constant (kd). […]

CC(C)[C@@H]1NC(=O)[C@H](C(C)C)NC(=O)[C@@H]2CCCCNC(=O)Cn3cc(c4ccccc43)C[C@H](NC(=O)[C@H](CC(N)=O)NC(=O)[C@H](CO)NC1=O)C(=O)N[C@@H](Cc1ccc(C(=O)O)cc1)C(=O)N[C@@H](CCCCN)C(=O)N[C@@H](Cc1c[nH]c3ccc(O)cc13)C(=O)NC(C)(C)C(=O)N[C@@H](C(C)C)C(=O)N[C@H](C(=O)NCCCC[C@H](NC(=O)CC[C@H](NC(=O)CC[C@H](NC(=O)CCCCCCCCCCCCC(=O)O)C(=O)O)C(=O)O)C(N)=O)CSCC(=O)N[C@@H](Cc1ccc(C(=O)O)cc1)C(=O)N2C [Compound 59]
Kd: 2.98 nM
